From patent publication US3991199A, “Pyridoindoles” (Endo Laboratories, Inc., priority 1974, dated 1976)

Legend:
[1] = test system: conflict (approach-avoidance); assay: Rat Conflict (Approach-Avoidance) Test (Conf), minor tranquilizer; type: in vivo; settings: po
[2] = test system: locomotor activity; assay: Decreased Locomotor Activity (LMA), sedative; type: in vivo; settings: po
[3] = test system: pressor response to epinephrine and/or nor-epinephrine; assay: Adrenergic Blockage (AB); type: in vivo; settings: intravenous
[4] = test system: blood pressure; assay: Hypotensive (Hypo): blood pressure in conscious rats; type: in vivo, rat; settings: oral dose
[5] = test system: conditioned avoidance response; assay: Rat Conditioned Avoidance Response (CAR), major tranquilizer; type: in vivo; settings: for CAR rat ED50: po; for major tranquilizing (antipsychotic) activity: in words

Row | SMILES | LMA mouse MED [2] [mg/kg] | other results
1 | CN1CC[C@@H]2[C@@H](C1)c1ccccc1N2c1ccccc1.Cl | 10 | Conf rat MED [1]: I; AB dog MED [3]: 0.01; Hypo rat MED [4]: 30; CAR rat ED50 [5]: 5 mg/kg
2 | Brc1ccc(N2c3ccc(Br)cc3[C@@H]3CNCC[C@H]32)cc1.Cl (racemic) | 10 | –
3 | C=CCN1CC[C@@H]2[C@@H](C1)c1ccccc1N2c1ccccc1 (racemic) | 10 | –
4 | CC(C)(C)CN1CC[C@@H]2[C@@H](C1)c1ccccc1N2c1ccccc1.Cl (racemic) | 30 | –
5 | CC(C)CN1CC[C@@H]2[C@@H](C1)c1ccccc1N2c1ccccc1 (racemic) | 10 | –
6 | CC(C)N1CC[C@@H]2[C@@H](C1)c1ccccc1N2c1ccccc1.Cl (racemic) | 14 | –
7 | CCN1CC[C@@H]2[C@@H](C1)c1ccccc1N2c1ccccc1.Cl (racemic) | 1 | major tranquilizing (antipsychotic) activity [5]: major tranquilizer (antipsychotic) activity; CAR rat ED50 [5]: 6 mg/kg
8 | CN1CC[C@@H]2[C@@H](C1)c1cc(Br)ccc1N2c1ccc(Br)cc1.Cl (racemic) | 3 | AB dog MED [3]: 0.1; major tranquilizing (antipsychotic) activity [5]: major tranquilizer (antipsychotic) activity; CAR rat ED50 [5]: 4 mg/kg
9 | C#CCN1CC[C@@H]2[C@@H](C1)c1ccccc1N2c1ccccc1 (relative stereo) | 30 | –
10 | CN1CC[C@@H]2[C@@H](C1)c1ccccc1N2c1cccc(C(F)(F)F)c1 (relative stereo) | 100 | –
11 | c1ccc(N2c3ccccc3[C@@H]3CN(C4CC4)CC[C@H]32)cc1 (relative stereo) | 10 | –
12 | c1ccc(N2c3ccccc3[C@@H]3CN(C4CCCC4)CC[C@H]32)cc1 (relative stereo) | 10 | –
13 | c1ccc(N2c3ccccc3[C@@H]3CN(CC4CC4)CC[C@H]32)cc1 (relative stereo) | 3 | –
14 | c1ccc(N2c3ccccc3[C@@H]3CNCC[C@H]32)cc1 (single isomer, unassigned) | 30 | CAR rat ED50 [5]: > 100 mg/kg
15 | c1ccc(N2c3ccccc3[C@@H]3CN(CC4CCC4)CC[C@H]32)cc1 [compound of Example 2, (+)-trans-2-(cyclobutylmethyl)-2,3,4,4a,5,9b-hexahydro-5-phenyl-1H-pyrido[4,3-b]indole] | – | AB dog MED [3]: 0.10
